{
  "source": "patent US20200306210A1",
  "about": "“CHANGING COGNITIVE FUNCTION WITH FENFLURAMINE” (ZOGENIX INTERNATIONAL LIMITED, priority 2017, published 2020)",
  "origin": "cited, not measured here",
  "tested_on": "serotonin 5-HT2 receptors",
  "conditions": "cited from earlier work",
  "data": [
    {"molecule": "CCNC(C)Cc1cccc(C(F)(F)F)c1", "note": "(racemic) [fenfluramine, (RS)—N-ethyl-1-[3-(trifluoromethyl)phenyl]propan-2-amine]", "values": [
      {"measurement": "Binding to serotonin 5-HT2 receptors", "value": "very weakly"}
    ]}
  ]
}
